The values that follow are results of earlier work, collected in paper PMC10641818, “Development of First-in-Class Dual Sirt2/HDAC6 Inhibitors as Molecular Tools for Dual Inhibition of Tubulin Deacetylation” (Journal of Medicinal Chemistry, 2023).

The chains behind the UniProt entries cited, without tags or fusion partners.
UniProt Q8IXJ6, whole entry: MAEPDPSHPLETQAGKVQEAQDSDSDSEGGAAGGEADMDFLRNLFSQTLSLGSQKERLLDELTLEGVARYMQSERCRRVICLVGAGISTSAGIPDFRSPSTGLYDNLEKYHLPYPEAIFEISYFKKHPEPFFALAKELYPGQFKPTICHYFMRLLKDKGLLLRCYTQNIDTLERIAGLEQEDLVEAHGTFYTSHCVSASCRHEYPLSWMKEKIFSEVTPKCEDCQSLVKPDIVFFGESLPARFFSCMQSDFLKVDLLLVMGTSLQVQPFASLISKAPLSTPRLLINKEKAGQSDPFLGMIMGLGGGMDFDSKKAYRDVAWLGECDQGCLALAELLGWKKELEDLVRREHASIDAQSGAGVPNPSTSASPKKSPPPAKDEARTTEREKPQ

pKd: −log10 of the molar value.

The data set deals with Sirt2 (Homo sapiens, UniProt Q8IXJ6). As to conditions: read-out: Kd of fluorescent Sirt2 tracer; cited from earlier work.

As for `Cc1cc(C)nc(SCC(=O)Nc2ncc(Cc3cccc(OCc4cn(CCCNC(=O)c5ccc6c(c5)C(=O)OC65c6ccc(N(C)C)cc6Oc6cc(N(C)C)ccc65)nn4)c3)s2)n1`, the pKd (commonly the Kd on a negative log10 scale, so that one unit is a factor of ten) was 6.60.
